Experimental data: patent publication US9090617B1, “Agonists of Src homology-2 containing protein tyrosine phosphatase-1 and treatment methods using the same” (National Taiwan University, priority 2011, dated 2015)

Tested on: p-VEGFR2 (Tyr1175)
Settings: HUVEC cells, 10 μM, 24 h

CNC(=O)c1cc(Oc2ccc(NC(=O)Nc3ccc(Cl)c(C(F)(F)F)c3)cc2)ccn1 [Sorafenib, reference compound]
phosphorylation of VEGFR: down-regulated the phosphorylation of VEGFR
